We go through one molecule from article PMC3317930, “A Human PrM Antibody That Recognizes a Novel Cryptic Epitope on Dengue E Glycoprotein” (PLoS ONE, 2012).

The assay addresses T1, prM protein of DENV4 (Dengue virus 4, strain H241, UniProt Q58HT7).
T1 construct: also called pre-membrane protein; source: DENV4-infected Vero cells, in lysate
The assay is described as follows: Western blot. The note with it: one partner purified.

B1: D29 Fab-IgG (antibody, V domains shown)
VH: QMQLVQSGGGVVQPGRSLRLSCAASGFTFSSYAMHWVRQAPGKGLEWVAGTSYDGSNKYYADSVKGRFTISGDNSKNTVYLQMNSLRAEDTAVYYCARAHSSGWYDAFDIWGQGTTVTVSS
VL: SYVLTQPPSVSVSPGQAASITCSGDKLGDKYAWWYQQKPGQSPVMVIHQDDKRPSGIPERFSGSNSGNTATLTITGTQAMDEADYYCQAWDRTTVVFGGGTKLTVL
notes: source: HEK 293 T cells (Fab from a non-immunized human Fab phage library, converted into human IgG format)
B1: the binding result is listed as “binds”.
